These are literature values, as cited in patent publication US20110039811A1, “TREATING HYPERGLYCEMIA WITH 25-HYDROXYVITAMIN D3” (priority 2008, published 2011).

The conditions of this data set: Hathcock et al. 2007; 10'000 IU; cited from earlier work.

Turning to Vitamin D, the safe upper level result is recorded as “at least 250 μg/day”.
